{
  "source": "patent US7317028B2",
  "about": "“Cell differentiation inducer” (Schering Aktiengesellschaft, priority 1996, dated 2008)",
  "system": "A2780 cells",
  "experiment": "Test for induction of differentiation in A2780 cells (ALP activity, ALPmin)",
  "format": "cell-based",
  "conditions": "Homo sapiens, A2780, 72 h, read-out: ALPmin",
  "procedure": "Increase of alkaline phosphatase (ALP) activity is known as an indicator for differentiation of human colon cancer cells. […] Thus, differentiation inducing action was evaluated using ALP activity as an indicator.\nTo each well of a 96-well plate was placed 0.1 mL of A2780 cells (15,000 cells/well) and the next day was added 0.1 mL of a sequential dilute of test solution with the medium. […] The reaction was quenched with 0.05 mL/well of 3N sodium hydroxide aq. For each well, an absorbance at 405 nm was measured to determine the minimum concentration of the drug inducing increase of ALP activity (ALPmin).",
  "data": [
    {"smiles": "O=C(NCc1ccc(C(=O)Nc2ccccc2O)cc1)OCc1cccnc1", "note": "[Example 82, N-(2-hydroxyphenyl)-4-[N-(pyridin-3-yl)methoxycarbonylaminomethyl]benzamide]", "values": [
      {"measurement": "minimal effective concentration", "result": 1, "unit": "µM"}
    ]}
  ]
}
